From US8030354B2, “Substituted biphenyl GPR40 modulators” (Amgen Inc., priority 2007, dated 2011)

By UniProt entry, the sequences of proteins in these tests, tags left out.
UniProt O14842, whole entry: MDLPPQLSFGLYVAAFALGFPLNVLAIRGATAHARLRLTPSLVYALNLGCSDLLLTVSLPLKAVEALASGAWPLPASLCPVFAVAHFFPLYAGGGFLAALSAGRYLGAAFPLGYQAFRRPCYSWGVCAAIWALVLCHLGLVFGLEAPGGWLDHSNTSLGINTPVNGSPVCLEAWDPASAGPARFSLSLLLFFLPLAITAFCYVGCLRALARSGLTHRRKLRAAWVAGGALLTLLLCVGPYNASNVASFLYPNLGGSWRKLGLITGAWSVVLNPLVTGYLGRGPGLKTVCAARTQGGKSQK

Assays:
GPR40 [1] = biological target: T1, GPR40 (Homo sapiens, UniProt O14842); test: Cell-based aequorin assay (CHO cells stably expressing GPR40 and aequorin); conditions: read-out: Aequorin EC50; activation of human GPR40, CHO cells, 0.01% HSA
GPR40 [2] = biological target: T1, GPR40; test: Inositol phosphate accumulation assay (A9_GPR40 cells); format: cell-based; conditions: read-out: IP3 EC50, 1 hour

## C=CCC(CC(=O)O)c1cccc(OCc2ccc(-c3cc(OC)ccc3F)c(C(C)(C)C)c2)c1 (stereo not drawn)
GPR40 [1]
  EC50: 1 to 10 µM

## C=C(C)C(CC(=O)O)c1cccc(OCc2ccc(-c3cc(OC)ccc3F)c(C(C)(C)C)c2)c1 (stereo not drawn)
GPR40 [1]
  EC50: 0.1 to 1 µM
GPR40 [2]
  EC50: 0.1 to 1 µM

## CCCC(CC(=O)O)c1cccc(OCc2ccc(-c3cc(OC)ccc3F)c(C(C)(C)C)c2)c1 (stereo not drawn)
GPR40 [1]
  EC50: 0.1 to 1 µM
GPR40 [2]
  EC50: 0.1 to 1 µM

## COc1ccc(F)c(-c2ccc(COc3cccc(C(C)CC(=O)O)c3)cc2C(C)(C)C)c1 (single isomer, unassigned) [Example 42, (3R)-3-(3-(((2-(1,1-Dimethylethyl)-2′-fluoro-5′-(methyloxy)-1,1′-biphenyl-4-yl)methyl)oxy)phenyl)butanoic acid or (3S)-3-(3-(((2-(1,1-dimethylethyl)-2′-fluoro-5′-(methyloxy)-1,1′-biphenyl-4-yl)methyl)oxy)phenyl)butanoic acid]
GPR40 [1]
  EC50: 1 to 10 µM
GPR40 [2]
  EC50: 1 to 10 µM

## COc1ccc(F)c(-c2ccc(COc3cccc(C(CC(=O)O)C4CC4)c3)cc2C2CCCC2C)c1 (single isomer, unassigned)
GPR40 [1]
  EC50: 0.1 to 1 µM
GPR40 [2]
  EC50: < 0.01 µM
